Laboratory results taken from US9611283B1 (dated 2017).

What was measured:
[1] = test system: Ba/F3 EML4-ALK S1206R tumors; assay: In vivo efficacy, xenograft of Ba/F3 cells expressing EML4-ALK S1206R; set-up: species or system SCID Beige mice; conditions: even at 200 mg/kg
[2] = test system: Ba/F3 cells expressing native EML4-ALK; assay: Accelerated in vitro mutagenesis screen

For `C[C@@H](Oc1cc(-c2cnn(C3CCNCC3)c2)cnc1N)c1c(Cl)ccc(F)c1Cl` [crizotinib], the “efficacy in xenograft mouse model” value [1] was “completely inefficacious”, the mutants observed [2] was “two” and the “mutants recovered in the screen” value ([2]; number of different mutants) was “Eighteen”.
